Data on one molecule can be found in paper PMC4104156 (Chemistry & biology, 2014).

The assay concerns the target BRD4-BrD1 (Homo sapiens, UniProt O60885). The assay can be described thus: Isothermal titration calorimetry. In kind it is binding. The note with it: ITC. For orientation: ITC needs no label: the signal is the heat of the interaction.

Each structure is given as a SMILES string.

Turning to `CC(=O)NCCCCn1c2c(c3ccccc31)C(=O)NCC2` [Olinone], the “improvement in binding affinity compared to analogs 4a, 4c and 4d” value is reported as “greater than 15 fold”.
